Consider 16 substances from patent publication US20240424134A1, “PEPTIDE HAVING INDEPENDENTLY STABILIZED HYDROPHOBIC ALPHA HELIX, PEPTIDE COMPLEX COMPRISING SAME AND USES THEREOF” (UIF (University Industry Foundation), Yonsei University, priority 2022, published 2024).

Data set [1] in a line: CD (circular dichroism) spectroscopy of α-helix structure. The class given is physicochemical. The following applies: Table 11; peptide complexes of Examples 37-97. (In general: Circular dichroism is the unequal absorption of left and right circularly polarised light.)
Data set [2] is described as follows: AFM analysis of self-assembled peptide complexes. The class given is physicochemical. The following applies: Table 12, self-assembled structure; for AFM morphology: 25 μM in distilled water. How it is done: AFM was performed using an NX10 system (Park Systems, Korea) in a non-contact mode with PPP-NCHR AFM probes (Nanosensors, Switzerland). The DNA concentration ranged from 1 to 30 ng/μL and the peptide concentration ranged from 1 to 32 μM (in H2O). 2 μL of the sample solution was cast onto a freshly cleaved mica surface and dried. The data obtained by the SmartScan program (Park Systems, Korea) was analyzed using the XEI program (Park Systems, Korea).
The CD spectroscopy was performed in the same manner as in Test Example 2 and the AFM was performed using the NX10 system (Park Systems, Korea) in a non-contact mode with PPP-NCHR AFM probes (Nanosensors, Switzerland). The peptide complex concentration ranged from 1 to 32 μM (in H2O). 2 μL of the sample solution was cast onto a freshly cleaved mica surface and dried. The data obtained by the SmartScan program (Park Systems, Korea) were analyzed using the XEI program (Park Systems, Korea).
The peptide complexes of Examples 37-40 were imaged by AFM. 25 μM of the peptide complex was dissolved in distilled water, sonicated for 5 minutes, incubated overnight and dropped on mica for measurement.

Regarding “Glucose-(PEG8)2AUAUAUAUAUAUAUAUAUAUAE [Example 96]”, the “θ222 nm/θ208 nm ratio” value in data set [1] is reported as 1.15. In data set [2], the “Average diameter (nm)” value is recorded as 130-190 nm and the AFM morphology result is recorded as “Vesicle”.
With “Glucose-(PEG8)2AUAUAUAUAUAUAUAUAUAUAEE [Example 97]”, in data set [1], the “θ222 nm/θ208 nm ratio” value is reported as 1.11.
For “Glucose-(PEG8)2AUAUAUAUAUAUAUAUAUAUAR [Example 80]”, in data set [1], the “θ222 nm/θ208 nm ratio” value worked out at 1.2. Further, in data set [2], the “Average diameter (nm)” value is given as 20-30 nm and the AFM morphology result was “Micelle”.
On the same counts, the results for “Glucose-(PEG8)3AUAUAUAUAUAUAUAUAUAUAR [Example 81]” are 1.15, 20-30 nm and “Micelle”.
On the same counts, the results for “Glucose-(PEG8)3AUAUAUAUAUAUAUAUAUAUAUAUAUARR [Example 82]” are 1.13, 120-140 nm and “Vesicle”.
The corresponding values for “Glucose-(PEG8)4AUAUAUAUAUAUAUAUAUAUAUAUAUARR [Example 83]” are 1.08, 40-80 nm and “Vesicle”.
“Glucose-(PEG8)4AUAUAUAUAUAUAUAUAUAUAUAUAUAUAUAUARR [Example 84]”: the “θ222 nm/θ208 nm ratio” value in data set [1] was 1.22.
The same measure, in the same setting: the same measure for “Glucose-(PEG8)5AUAUAUAUAUAUAUAUAUAUAUAUAUAUAUAUARR [Example 85]”: 1.18.
As to “Glucose-GSAUAUAUAUAUAUAUAUAUAUAR [Example 86]”, in data set [1], the “θ222 nm/θ208 nm ratio” value turned out to be 1.14.
Same read-out and setting: under “Glucose-GSGSAUAUAUAUAUAUAUAUAUAUAR [Example 87]” stands 1.08.
For “Glucose-GSGSGSAUAUAUAUAUAUAUAUAUAUAR [Example 88]”, in data set [2], the “Average diameter (nm)” value is 100-140 nm and the AFM morphology entry is “Vesicle”.
The corresponding values for “Glucose-GSGSGSGSAUAUAUAUAUAUAUAUAUAUAR [Example 89]” are 70-80 nm and “Vesicle”.
Take “RAUAUAUAUAUAUAUAUAUAUA(PEG8)2-glucose [Example 76]”: the “θ222 nm/θ208 nm ratio” value in data set [1] worked out at 1.18. In data set [2], the “Average diameter (nm)” value is listed as 50-160 nm and the AFM morphology result is recorded as “Vesicle”.
Take “RRAUAUAUAUAUAUAUAUAUAUA(PEG8)2-glucose [Example 77]”: the “θ222 nm/θ208 nm ratio” value in data set [1] amounted to 1.09. Besides, in data set [2], the “Average diameter (nm)” value is on record as 50-190 nm and the AFM morphology result is “Vesicle”.
On to “RRRAUAUAUAUAUAUAUAUAUAUA(PEG8)2-glucose [Example 78]”, for which, in data set [1], the “θ222 nm/θ208 nm ratio” value amounted to 1.04. Besides, in data set [2], the “Average diameter (nm)” value was 80-320 nm and the AFM morphology entry is on record as “Vesicle”.
Consider “RRRRAUAUAUAUAUAUAUAUAUAUA(PEG8)2-glucose [Example 79]”, for which, in data set [2], the “Average diameter (nm)” value is on record as 450-500 nm and the AFM morphology entry is on record as “Vesicle”.
